Earlier results in paper PMC3586205 (2012).

System: ring immobility in mice
Conditions: 10 mg/kg i.v.; ref Wiley et al. (2012); cited from earlier work

## Cc1c(C(=O)NN2CCCCC2)nn(-c2ccc(Cl)cc2Cl)c1-c1ccc(Cl)cc1 [Rimonabant, reference compound]
  RI, % time immobile on elevated ring (maximum effect): inactive (10)
